We go through one compound from ChEMBL document CHEMBL1131777, “Analogs of 4-(3-bromo-8-methyl-10-methoxy-6,11-dihydro-5H-benzo[5,6]-cyclo hepta[1,2-b]pyridin-11-yl)-1-(4-pyridinylacetyl)piperidine N-oxide as inhibitors of farnesyl protein transferase” (Bioorg Med Chem Lett, 1999).

For the assay, the target named is Protein farnesyltransferase (Homo sapiens, UniProt P49354+P49356). In words: In vitro inhibition of human Farnesyltransferase. The class given is protein-complex assay.

In turn, `NC(=O)N1CCC(CC(=O)N2CCC([C@H]3c4ncc(Br)cc4CCc4cc(Cl)cc(Br)c43)CC2)CC1` [LONAFARNIB] returned a half-inhibitory concentration (IC50) of 1900 nM.
